# PubChem BioAssay AID950 (NMMLSC, 2007)
# By UniProt entry, the sequences of proteins in these tests, tags left out.
# UniProt P10415, whole entry: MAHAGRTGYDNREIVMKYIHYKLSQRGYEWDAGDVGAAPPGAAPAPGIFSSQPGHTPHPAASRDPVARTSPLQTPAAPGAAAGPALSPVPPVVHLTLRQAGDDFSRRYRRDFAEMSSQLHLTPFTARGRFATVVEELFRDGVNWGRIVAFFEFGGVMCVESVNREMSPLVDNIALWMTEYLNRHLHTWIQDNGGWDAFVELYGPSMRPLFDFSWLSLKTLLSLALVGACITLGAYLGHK
# This is a selection; strong and weak results do not stand in their true shares. Activity calls are given as the source filed them. Rule as the data show it: active = inhibition above about 40%; inconclusive = no clear call, values can overlap the other calls; inactive = below that.
# Molecular target: Apoptosis regulator Bcl-2 (Homo sapiens) (UniProt P10415)
# Assay: inhibitors of Bim-Bcl-2 binding, primary screen, biochemical, multiplexed, human Bcl-2 family (AID 950);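 also: 0% = no compound wells with probe peptide and 100% = reference peptide inhibitor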
# Details: Bead-based flow cytometry, Bim peptide-Bcl-2 binding; at 10 µM; active compounds read high
row,SMILES,inhibition
1,COc1ccc(C(=O)NCC2(N3CCCCC3)CCCCC2)c(OC)c1OC,inactive: -4%
2,CCOC(=O)N1CCC(Nc2ccc(OC)cc2)CC1,inactive: -1%
3,O=C(OC1CN2CCC1CC2)C1c2ccccc2Oc2ccccc21 (stereo not given),inactive: -3%
4,O=C(NCC1(N2CCOCC2)CCCCC1)c1cc2ccccc2o1,inactive: 11%
5,COc1ccc(NC2CCN(CCc3ccccc3)CC2)c(OC)c1,inactive: -8%
6,O=C(NCC1(N2CCCCC2)CCCCC1)c1cccc([N+](=O)[O-])c1,inactive: 0%
7,N#CC1(Nc2ccccc2)CCN(CCc2ccccc2)CC1,inactive: 0%
8,CN1CCN(CCOC(=O)C(O)(c2ccccc2)c2ccccc2)CC1,inactive: -5%
9,COc1ccc(NC2CCN(C(=O)OC(C)(C)C)CC2)cc1,inactive: 0%
10,O=C(NCC1(N2CCOCC2)CCCCC1)c1cc(=O)[nH]c2ccccc12,inactive: -5%
11,COc1ccc(CN(CCCl)CCCl)cc1Cl,inactive: -1%
12,CN(C)c1cccc(C(=O)NCC2(N3CCCCC3)CCCCC2)c1,inactive: 2%
13,CC(C)c1ccc(NC2CCN(C(=O)OC(C)(C)C)CC2)cc1,inactive: 0%
14,COc1ccc(C(=O)NCC2(N3CCOCC3)CCCCC2)cc1OC,inactive: -3%
15,O=C(OC1CN2CCC1CC2)C1c2ccccc2C=Cc2ccccc21 (stereo not given),inactive: -4%
16,N/C(=N\O)c1c(N)no[n+]1[O-],inactive: -3%
17,N#Cc1ccc(C(=O)NCC2(N3CCCCC3)CCCCC2)cc1,inactive: -2%
18,c1ccc(CN2CCC(Nc3ccccc3)CC2)cc1,inactive: -3%
19,Fc1ccccc1NC1CCN(Cc2ccccc2)CC1,inactive: 1%
20,CN(C)c1ccc(C(=O)NCC2(N3CCCCC3)CCCCC2)cc1,inactive: 0%
21,CCN1CCC(Nc2cccc(F)c2)CC1,inactive: -2%
22,CC(C)(C)OC(=O)N1CCC(Nc2ccccc2)CC1,inactive: -2%
23,CCOc1ncccc1C(=O)NCC1(N2CCOCC2)CCCCC1,inactive: 1%
24,CCC(CO)(C(=O)OC1CN2CCC1CC2)c1ccccc1 (stereo not given),inactive: -2%
25,COc1cc(OC)cc(C(=O)NCC2(N3CCOCC3)CCCCC2)c1,inactive: -2%
